# Measured values taken from patent US6043072A, “Nucleic acids encoding Taxus geranylgeranyl diphosphate synthase, and methods of use” (Washington State University Research Foundation, priority 1998, dated 2000).
# Chains of the proteins cited; added tags and fusions are not shown. Residues count along the entry.
# UniProt Q9ZPM3, 99-393: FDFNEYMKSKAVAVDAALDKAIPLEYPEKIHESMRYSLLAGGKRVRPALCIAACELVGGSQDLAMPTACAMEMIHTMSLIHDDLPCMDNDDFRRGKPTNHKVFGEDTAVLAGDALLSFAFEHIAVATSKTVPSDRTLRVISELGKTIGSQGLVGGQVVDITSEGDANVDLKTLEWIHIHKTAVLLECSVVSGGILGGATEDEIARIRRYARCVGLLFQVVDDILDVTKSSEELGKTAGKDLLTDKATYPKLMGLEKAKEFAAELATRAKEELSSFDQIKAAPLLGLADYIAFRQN
# Molecular target: T. canadensis GGPP synthase (Taxus canadensis, UniProt Q9ZPM3)
# Assay: Kinetic evaluation of recombinant GGPP synthase (standard prenyltransferase assay, double reciprocal plots)
# Format: biochemical
# Conditions: co-substrate at 12.5 and 25 mM; IPP and Mg^2+ at saturation
# Description: The reaction was quenched by the addition of 300 mil of methanol:conc. HCl (4:1, v/v), and the allylic diphosphate products were solvolyzed (50, 51) upon further incubation at 42° C. for 20 min. The resulting solvolysis products were extracted twice with 1 ml pentane, and were either analyzed by liquid scintillation counting (in toluene:ethanol (7:3, v/v) containing 0.4% Omnifluor (DuPont NEN); ^14 C counting efficiency=96.0%) or concentrated on ice under a gentle stream of Ar to […] for further analysis.
structure (smiles),measurement,value
"CC(C)=CCOP(=O)(O)OP(=O)(O)O [DMAPP, dimethylallyl diphosphate]",relative velocities of the reaction with allylic co-substrates,33%
